Test results from patent US5824692A (priority 1995, dated 1998).

Target: high affinity CNS nicotinic receptors
Type: binding, rat (Sprague-Dawley)

SMILES	Ki
COc1cncc(/C=C/CCN)c1 [Sample No. 3, (E)-4-[3-(5-methoxypyridin)yl]-3-butene-1-amine monofumarate]	22 nM
CNCC/C=C/c1ccc(C)nc1 [Sample No. 6, (E)-N-methyl-4-[3-(6-methylpyrindin)yl]-3-butene-1-amine]	176 nM
